Measurements reported in patent publication US20140094465A1, “Compounds as S-Nitrosoglutathione Reductase Inhibitors” (N30 PHARMACEUTICALS, INC., priority 2011, published 2014).

Sequences of proteins named here, by UniProt entry; tags and fusion partners are left off.
UniProt P11766, whole entry: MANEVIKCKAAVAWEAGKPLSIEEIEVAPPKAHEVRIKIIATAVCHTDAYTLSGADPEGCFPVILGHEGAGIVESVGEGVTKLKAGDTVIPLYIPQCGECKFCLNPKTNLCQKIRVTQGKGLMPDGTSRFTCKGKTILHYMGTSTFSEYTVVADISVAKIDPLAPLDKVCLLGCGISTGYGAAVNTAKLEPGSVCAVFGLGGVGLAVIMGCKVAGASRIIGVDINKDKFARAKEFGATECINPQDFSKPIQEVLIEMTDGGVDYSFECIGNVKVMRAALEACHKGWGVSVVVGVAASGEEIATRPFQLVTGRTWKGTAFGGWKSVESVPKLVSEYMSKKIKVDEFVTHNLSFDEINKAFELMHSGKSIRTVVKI

Target: S-nitrosoglutathione reductase (GSNOR) (Homo sapiens, UniProt P11766)
Assay: GSNOR assay (inhibition of GSNOR activity, NADH absorbance at 340 nm)
Assay type: biochemical
Conditions: read-out: IC50 range; GSNOR inhibitor activity, Tables 1-6

Row | SMILES | IC50
1 | O=C(O)c1ccc(-c2nnc3cc(O)ccc3n2)cc1 | 100 to 1000 nM
2 | Cc1c(-c2ccc(C(=O)O)cc2)ccc2cc(O)ccc12 | 100 to 1000 nM
3 | O=C(O)c1ccc(-c2nc3cc(O)ccc3nc2C(F)(F)F)cc1 | 100 to 1000 nM
4 | O=C(O)c1ccc(-c2ccc3c(F)c(O)ccc3c2)cc1 | < 100 nM
5 | N#Cc1c(-c2ccc(C(=O)O)cc2)ccc2c(F)c(O)ccc12 | < 100 nM
6 | O=C(O)c1ccc(Cc2sc3cc(O)ccc3c(=O)c2-c2ccc(C(=O)O)cc2)cc1 | 100 to 1000 nM
7 | O=C(O)c1ccc(-c2c(-c3cccs3)oc3cc(O)ccc3c2=O)cc1 | 1000 to 10000 nM
8 | CCC(F)(F)c1oc2cc(O)ccc2c(=O)c1-c1ccc(C(=O)O)cc1 | 100 to 1000 nM
9 | O=C(O)c1ccc(-c2cnc3cc(O)ccc3c2)cc1 | 1000 to 10000 nM
10 | O=C(O)c1ccc(-c2nc3ccc(O)cc3cc2C(F)(F)F)cc1 | < 100 nM
11 | COc1cc2cc(O)ccc2cc1-c1ccc(C(=O)O)cc1 | 1000 to 10000 nM
12 | O=C(O)c1ccc(-c2coc3cc(O)ccc3c2=O)cc1 | 100 to 1000 nM
13 | O=C(O)c1ccc(-c2ccc3cc(O)ccc3[n+]2[O-])cc1 | 100 to 1000 nM
14 | Cc1sc2cc(O)ccc2c(=O)c1-c1ccc(C(=O)O)cc1 | < 100 nM
15 | N#Cc1cc2c(=O)c(-c3ccc(C(=O)O)cc3)c(C(F)(F)F)oc2cc1O | 1000 to 10000 nM
16 | COc1cc2c(=O)c(-c3ccc(C(=O)O)cc3)c(C(F)(F)F)oc2cc1O | 100 to 1000 nM
17 | O=C(O)c1ccc(-c2cnc3cc(O)ccc3n2)cc1 | < 100 nM
18 | O=C(O)c1ccc(-c2ccc3cc(O)ccc3c2Cl)cc1 | < 100 nM
19 | N#Cc1c(-c2ccc(C(=O)O)cc2)ccc2cc(O)ccc12 | < 100 nM

Row | SMILES | IC50
20 | O=C(O)c1ccc(-c2nc3ccc(O)cc3c(Cl)c2F)cc1 | < 100 nM
21 | O=C(O)c1ccc(-c2c(C(F)(F)F)oc3cc(O)c(F)cc3c2=O)cc1 | 100 to 1000 nM
22 | O=C(O)c1ccc(-c2ccc3cc(O)ccc3c2Br)cc1 | < 100 nM
23 | O=C(O)c1ccc(-c2c(-c3ccsc3)oc3cc(O)ccc3c2=O)cc1 | 1000 to 10000 nM
24 | O=C(O)c1ccc(-c2c(C(F)(F)F)oc3cc(O)c(Cl)cc3c2=O)cc1 | 1000 to 10000 nM
25 | CSc1oc2cc(O)ccc2c(=O)c1-c1ccc(C(=O)O)cc1 | 100 to 1000 nM
26 | O=C(O)c1ccc(-c2cc3ccc(O)cc3[n+]([O-])c2)cc1 | 1000 to 10000 nM
27 | O=C(O)c1ccc(-c2c(Cc3ccccc3)oc3cc(O)ccc3c2=O)cc1 | 100 to 1000 nM
28 | O=C(O)c1ccc(-c2nc3ccc(O)cc3nc2C(F)(F)F)cc1 | < 100 nM
29 | O=C(O)c1ccc(-c2nc3ccc(O)cc3cc2F)cc1 | < 100 nM
30 | O=C(O)c1ccc(-c2cc(Cl)c3cc(O)ccc3n2)cc1 | < 100 nM
31 | O=C(O)c1ccc(-c2c(C(F)F)oc3cc(O)ccc3c2=O)cc1 | < 100 nM
32 | O=C(O)c1ccc(-c2c(C3CCCC3)oc3cc(O)ccc3c2=O)cc1 | 1000 to 10000 nM
33 | O=C(O)c1ccc(-c2nc3ccc(O)cc3[n+]([O-])n2)cc1 | < 100 nM
34 | O=C(O)c1ccc(-c2cc3ccc(O)cc3cn2)cc1 | 100 to 1000 nM
35 | CC(C)Cc1oc2cc(O)ccc2c(=O)c1-c1ccc(C(=O)O)cc1 | 100 to 1000 nM
36 | Cc1nc(-c2ccc(C(=O)O)cc2)nc2ccc(O)cc12 | 1000 to 10000 nM
37 | O=C(O)c1ccc(-c2ccc3c(Cl)c(O)ccc3n2)cc1 | 100 to 1000 nM
38 | CC(C)c1oc2cc(O)ccc2c(=O)c1-c1ccc(C(=O)O)cc1 | 100 to 1000 nM
